In PMC4187030 (2014):
Like-named read-outs stand apart in the source and are kept apart here.

What was measured:
[1] = Formation constants (Kf) by UV–visible spectral displacement method, α-CD; type: physicochemical; conditions: UV–visible spectral displacement with MO (MO itself by direct titration), SD <10%
[2] = Formation constants (Kf) by UV–visible spectral displacement method, β-CD; type: physicochemical; conditions: UV–visible spectral displacement with MO (MO itself by direct titration), SD <10%
[3] = Formation constants (Kf) by UV–visible spectral displacement method, HP-β-CD; type: physicochemical; conditions: UV–visible spectral displacement with MO (MO itself by direct titration), SD <10%
[4] = α-CD; cited from earlier work
[5] = β-CD, cited from earlier work
[6] = HP-β-CD, cited from earlier work
[7] = RAMEB, cited from earlier work
[8] = CRYSMEB, cited from earlier work
[9] = cited from earlier work

## isoeugenol [Isoeugenol (3)]
[1]
  Formation constant (Kf): 178 M⁻¹
[2]
  Formation constant (Kf): 364 M⁻¹
[3]
  Formation constant (Kf): 418 M⁻¹
[4]
  Formation constant (Kf): 85 M⁻¹
[5]; ref 21
  Formation constant (Kf): 304 M⁻¹
[5]; ref 24
  Formation constant (Kf): 255 M⁻¹
[6]; ref 21
  Formation constant (Kf): 452 M⁻¹
[6]; ref 24
  Formation constant (Kf): 441 M⁻¹
[7]; ref 21
  Formation constant (Kf): 547 M⁻¹
[7]; ref 24
  Formation constant (Kf): 514 M⁻¹
[8]; ref 21
  Formation constant (Kf): 240 M⁻¹
[8]; ref 24
  Formation constant (Kf): 263 M⁻¹
[9]
  log P: 2.379
